Assays:
Assay type in all cases: functional
Klebsiella pneumoniae [1] = test: Antimicrobial activity against blaKPC-positive Klebsiella pneumoniae S1 by broth microdilution method
Klebsiella pneumoniae [2] = test: Antimicrobial activity against blaKPC-positive Klebsiella pneumoniae S11 by broth microdilution method
Klebsiella pneumoniae [3] = test: Antimicrobial activity against blaKPC-positive Klebsiella pneumoniae S4 by broth microdilution method

Measured: MIC

GENTAMICIN
0.5 mg/L: Klebsiella pneumoniae [1] | Klebsiella pneumoniae [2] | Klebsiella pneumoniae [3]

Source: ChEMBL document CHEMBL1649191, “Genetic organization of transposase regions surrounding blaKPC carbapenemase genes on plasmids from Klebsiella strains isolated in a New York City hospital” (2009)
